Measured values as given in ChEMBL document CHEMBL1154682, “Discovery of novel benzoxazinones as potent and orally active long chain fatty acid elongase 6 inhibitors” (J Med Chem, 2009).

Target: T1, Very long chain fatty acid elongase 6 (Mus musculus, UniProt Q920L5)
T1 sequence (Q920L5 whole entry): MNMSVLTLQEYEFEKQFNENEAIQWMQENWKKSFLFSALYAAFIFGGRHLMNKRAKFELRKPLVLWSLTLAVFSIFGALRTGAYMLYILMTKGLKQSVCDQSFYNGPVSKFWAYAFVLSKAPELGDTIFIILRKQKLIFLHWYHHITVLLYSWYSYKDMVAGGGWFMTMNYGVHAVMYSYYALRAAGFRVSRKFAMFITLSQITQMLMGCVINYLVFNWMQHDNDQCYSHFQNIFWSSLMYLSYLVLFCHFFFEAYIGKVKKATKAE
Assay: Inhibition of ELOVL6 in mouse H2.35 cells assessed as elongation index
Assay type: cell-based
Method in brief: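 Subconfluent mouse hepatoma H2.35 cells were kept at 33 °C in DMEM with 200 nM dexamethasone and 4% FBS. Cells were preincubated with compound 60 min, then labelled with [1-14C]palmitic acid (0.8 μCi/mL final) for 4 h. Lipids were hydrolysed in NaOH at 70 °C, and fatty acids extracted and quantified by radio-HPLC. Elongation index = (C18:0 + C18:1) / (C16:0 + C16:1).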

SMILES: O=C1Nc2ccc(Cl)cc2C(CNC(=O)c2ccc(F)cc2)(C(F)(F)F)O1 (stereo unspecified)
- IC50: 131 nM
